In the test the target is CRBN (Homo sapiens, UniProt Q96SW2). The test is described as follows: NanoBRET live-cell target engagement of CRBN in HEK293 cells. The test is classed as cell-based. Particulars: number in parentheses, 37 °C. Background: In BRET a luciferase serves as donor, and the signal depends on an acceptor being close.

Protein sequences, listed by entry. Tags and fused reporters are not part of them. Lines headed by an entry give the natural chain unless they say otherwise; changes in a name come on top.
UniProt Q96SW2: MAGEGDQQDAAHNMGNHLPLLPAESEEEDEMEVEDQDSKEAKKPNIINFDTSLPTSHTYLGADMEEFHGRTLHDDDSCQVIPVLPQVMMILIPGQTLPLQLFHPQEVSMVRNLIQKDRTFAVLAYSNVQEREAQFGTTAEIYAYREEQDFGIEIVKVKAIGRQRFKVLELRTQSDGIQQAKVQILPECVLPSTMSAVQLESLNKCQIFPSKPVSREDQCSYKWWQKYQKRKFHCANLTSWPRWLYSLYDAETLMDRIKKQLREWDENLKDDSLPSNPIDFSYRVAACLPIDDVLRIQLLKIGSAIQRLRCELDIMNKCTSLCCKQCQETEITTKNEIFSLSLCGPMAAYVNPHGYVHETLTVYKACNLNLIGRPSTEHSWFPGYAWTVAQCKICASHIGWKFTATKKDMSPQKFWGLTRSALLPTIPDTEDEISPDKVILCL

Take `Nc1cccc2c1C(=O)N(C1CCC(=O)NC1=O)C2=O` (stereo not shown) [Pomalidomide, pomalidomide, reference compound]: the “Hill slope, CRBN target engagement” value was 0.8.

For the origin of these results see article PMC10332445 (Journal of medicinal chemistry, 2023).
